These are literature values, as cited in PMC7589326, “Synthesis and Pharmacological Evaluation of Fluorinated Quinoxaline‐Based κ‐Opioid Receptor (KOR) Agonists Designed for PET Studies” (Chemmedchem, 2020).

Protein sequences, listed by entry. Tags and fused reporters are not part of them. Lines headed by an entry give the natural chain unless they say otherwise; changes in a name come on top.
UniProt P33533, whole entry: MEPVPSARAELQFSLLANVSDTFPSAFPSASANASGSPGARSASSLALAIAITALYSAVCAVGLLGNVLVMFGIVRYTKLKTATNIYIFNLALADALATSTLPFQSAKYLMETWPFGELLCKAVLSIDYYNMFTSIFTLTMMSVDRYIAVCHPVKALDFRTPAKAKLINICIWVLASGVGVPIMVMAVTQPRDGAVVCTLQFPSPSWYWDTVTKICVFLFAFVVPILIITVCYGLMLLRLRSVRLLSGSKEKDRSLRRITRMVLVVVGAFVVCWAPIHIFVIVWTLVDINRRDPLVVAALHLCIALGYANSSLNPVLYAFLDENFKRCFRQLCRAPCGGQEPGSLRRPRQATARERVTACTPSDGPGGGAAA
UniProt P41144: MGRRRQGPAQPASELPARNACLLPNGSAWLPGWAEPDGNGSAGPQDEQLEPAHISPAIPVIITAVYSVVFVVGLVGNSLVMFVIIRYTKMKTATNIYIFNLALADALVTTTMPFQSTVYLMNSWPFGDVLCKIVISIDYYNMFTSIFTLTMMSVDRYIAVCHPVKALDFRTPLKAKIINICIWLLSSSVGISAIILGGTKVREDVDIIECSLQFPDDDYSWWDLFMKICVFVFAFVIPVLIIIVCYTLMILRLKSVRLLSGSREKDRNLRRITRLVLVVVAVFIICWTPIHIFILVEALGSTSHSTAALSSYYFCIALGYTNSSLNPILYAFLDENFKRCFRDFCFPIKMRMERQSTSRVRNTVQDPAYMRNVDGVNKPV

The target of data set [1] is T1, DOR (Rattus norvegicus, UniProt P33533).
T1 construct: preparations from rat brain were employed in the DOR assay; tissue Harlan-Winkelmann, Borchen, Germany; host or cells: rat brain (Sprague Dawley) membrane homogenate
The settings on record: read-out: Ki DOR [3H]DPDPE; cited from earlier work.

Data set [2] concerns the target T2, KOR (Cavia porcellus, UniProt P41144).
T2 construct: The thawed guinea pig brain membrane preparation (about 100 μg of the protein) was incubated; tissue Harlan-Winkelmann, Borchen, Germany; host or cells: guinea pig brain membrane homogenate
The settings on record: read-out: Ki±SEM KOR [3H]U-69,593; cited from earlier work.

`COC(=O)N1CCN(C(=O)Cc2ccc(Cl)c(Cl)c2)[C@@H]2[C@@H](N3CCCC3)CCC[C@@H]21` [1c]: the figures for the Ki in data set [1] and in data set [2] were 250 nM and 1.3 ± 0.4 nM, respectively.
